ChEMBL document CHEMBL1122429, “In vitro and in vivo protection of acetylcholinesterase against organophosphate poisoning by pretreatment with a novel derivative of 1,3,2-dioxaphosphorinane 2-oxide” (1983)

Protein sequences, listed by entry. Tags and fused reporters are not part of them. Residues count along the entry.
UniProt Q03311, 30-603 limits assumed: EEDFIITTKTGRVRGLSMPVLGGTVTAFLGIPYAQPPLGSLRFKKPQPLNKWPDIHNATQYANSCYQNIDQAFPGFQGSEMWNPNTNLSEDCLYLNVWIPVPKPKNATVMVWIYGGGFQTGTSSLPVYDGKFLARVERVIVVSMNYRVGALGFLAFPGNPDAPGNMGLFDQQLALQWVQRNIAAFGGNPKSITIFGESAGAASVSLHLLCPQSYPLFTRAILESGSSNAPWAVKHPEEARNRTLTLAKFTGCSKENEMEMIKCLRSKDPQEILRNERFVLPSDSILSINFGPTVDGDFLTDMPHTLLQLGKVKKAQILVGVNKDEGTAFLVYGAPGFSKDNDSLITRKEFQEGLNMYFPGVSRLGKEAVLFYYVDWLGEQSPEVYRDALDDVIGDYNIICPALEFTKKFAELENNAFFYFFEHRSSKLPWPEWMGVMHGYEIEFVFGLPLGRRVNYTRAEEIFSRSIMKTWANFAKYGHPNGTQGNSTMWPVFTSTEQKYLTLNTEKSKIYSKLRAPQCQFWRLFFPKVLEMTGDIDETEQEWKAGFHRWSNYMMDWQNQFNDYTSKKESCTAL
UniProt Q9N1N9, 29-602 limits assumed: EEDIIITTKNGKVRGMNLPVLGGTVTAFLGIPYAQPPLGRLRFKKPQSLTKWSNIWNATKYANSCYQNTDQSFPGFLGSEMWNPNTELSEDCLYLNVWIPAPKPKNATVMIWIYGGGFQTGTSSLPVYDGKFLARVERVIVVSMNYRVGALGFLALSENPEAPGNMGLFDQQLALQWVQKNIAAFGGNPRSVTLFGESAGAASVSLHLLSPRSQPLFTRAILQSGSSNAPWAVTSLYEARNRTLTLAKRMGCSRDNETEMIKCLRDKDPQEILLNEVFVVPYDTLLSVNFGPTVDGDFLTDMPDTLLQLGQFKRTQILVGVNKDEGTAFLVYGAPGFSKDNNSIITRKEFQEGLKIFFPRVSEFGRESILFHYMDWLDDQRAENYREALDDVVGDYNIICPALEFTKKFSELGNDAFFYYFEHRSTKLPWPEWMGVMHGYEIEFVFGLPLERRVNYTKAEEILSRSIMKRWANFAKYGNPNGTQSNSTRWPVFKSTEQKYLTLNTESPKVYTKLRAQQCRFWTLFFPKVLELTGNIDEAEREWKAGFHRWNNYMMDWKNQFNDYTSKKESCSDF
UniProt O42275, 24-633 limits assumed: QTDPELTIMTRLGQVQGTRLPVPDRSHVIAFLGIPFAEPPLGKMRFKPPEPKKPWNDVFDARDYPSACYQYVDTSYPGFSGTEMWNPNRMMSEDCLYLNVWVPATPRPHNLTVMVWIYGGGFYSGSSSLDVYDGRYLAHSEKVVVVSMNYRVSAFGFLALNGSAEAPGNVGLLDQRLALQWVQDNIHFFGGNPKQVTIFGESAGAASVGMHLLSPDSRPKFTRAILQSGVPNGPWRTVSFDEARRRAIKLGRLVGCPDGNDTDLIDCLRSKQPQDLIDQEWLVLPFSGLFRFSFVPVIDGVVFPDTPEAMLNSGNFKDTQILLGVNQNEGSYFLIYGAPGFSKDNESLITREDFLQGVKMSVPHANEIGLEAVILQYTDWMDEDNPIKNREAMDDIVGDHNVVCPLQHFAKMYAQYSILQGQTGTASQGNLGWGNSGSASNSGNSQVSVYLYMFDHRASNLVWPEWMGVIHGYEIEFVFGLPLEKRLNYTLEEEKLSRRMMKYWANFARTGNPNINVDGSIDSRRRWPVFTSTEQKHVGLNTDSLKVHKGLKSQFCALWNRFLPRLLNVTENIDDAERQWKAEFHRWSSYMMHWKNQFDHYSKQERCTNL

Experiments:
[1] = Spontaneous reactivation rate constant evaluated by dilution method for inhibited horse serum butyrylcholinesterase
[2] = Substrate concentration constant was evaluated in inhibition of eel acetylcholinesterase
[3] = target: Cholinesterase (Mus musculus) (UniProt Q03311); assay: Percent activity of mouse serum butyrylcholinesterase prior to reactivation on incubation for 4 hr with compound of 5 uM at 25 degrees
[4] = target: T1, Acetylcholinesterase (Rattus norvegicus) (UniProt P37136); assay: Percent activity of rat brain acetylcholinesterase prior to reactivation on incubation for 5 hr with compound of 5 uM at 25 degrees
T1 sequence (whole entry): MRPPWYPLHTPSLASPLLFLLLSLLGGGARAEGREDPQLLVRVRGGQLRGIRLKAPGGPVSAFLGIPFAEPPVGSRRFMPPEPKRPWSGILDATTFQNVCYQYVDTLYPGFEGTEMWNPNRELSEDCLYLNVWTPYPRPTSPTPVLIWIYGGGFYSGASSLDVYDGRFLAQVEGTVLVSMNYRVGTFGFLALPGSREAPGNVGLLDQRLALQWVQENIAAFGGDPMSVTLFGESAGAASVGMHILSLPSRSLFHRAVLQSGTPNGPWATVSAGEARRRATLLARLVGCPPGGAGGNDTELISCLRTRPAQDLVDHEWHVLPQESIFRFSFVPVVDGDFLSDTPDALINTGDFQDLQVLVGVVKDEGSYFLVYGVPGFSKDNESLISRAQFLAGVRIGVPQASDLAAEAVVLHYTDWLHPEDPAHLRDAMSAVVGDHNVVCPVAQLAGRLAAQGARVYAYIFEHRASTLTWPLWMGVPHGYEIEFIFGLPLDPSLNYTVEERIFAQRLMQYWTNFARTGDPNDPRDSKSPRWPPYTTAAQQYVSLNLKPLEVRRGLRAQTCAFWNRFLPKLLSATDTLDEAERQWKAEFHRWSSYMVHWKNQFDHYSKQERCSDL

[5] = target: Butyrylcholinesterase (Equus caballus) (UniProt Q9N1N9); assay: Percent activity of horse serum butyrylcholinesterase on 2 hours of incubation with 5 uM at 25 degree C followed by reactivation occurring spontaneously after 20h
[6] = Pseudo first order rate constant of compound in inhibition of rat brain acetylcholinesterase at pH 7.0
[7] = target: T1, Acetylcholinesterase (Rattus norvegicus); assay: Percent activity of rat brain acetylcholinesterase on 5 hours incubation with 5 uM of compound at 25 degree C followed by reactivation with 0.5 mM 2-PAM after 20h
[8] = target: Cholinesterase (Mus musculus) (UniProt Q03311); assay: Percent activity of mouse serum butyrylcholinesterase on 20 hours incubation with 5 uM of compound at 25 degree C followed by reactivation with 0.5 mM 2-PAM after 20h
[9] = target: T1, Acetylcholinesterase (Rattus norvegicus); assay: Percent activity of rat brain acetylcholinesterase on 5 hours of incubation with 5 uM at 25 degree C followed by reactivation occurring spontaneously after 20h
[10] = Spontaneous reactivation rate constant evaluated by dilution method for inhibited rat brain acetylcholinesterase
[11] = target: Butyrylcholinesterase (Equus caballus) (UniProt Q9N1N9); assay: Percent activity of horse serum butyrylcholinesterase on 20 hours incubation with 5 uM of compound at 25 degree C followed by reactivation with 0.5 mM 2-PAM after 20h
[12] = target: Acetylcholinesterase (Electrophorus electricus) (UniProt O42275); assay: Percent activity of eel acetylcholinesterase on 2 hours incubation with 5 uM of compound at 25 degree C followed by reactivation with 0.5 mM 2-PAM after 20h
[13] = Spontaneous reactivation rate constant evaluated by dilution method for inhibited eel acetylcholinesterase
[14] = Substrate concentration constant was evaluated in inhibition of rat brain acetylcholinesterase after addition of 2-PAM
[15] = Spontaneous reactivation rate constant evaluated by dilution method for inhibited mouse serum butyrylcholinesterase
[16] = target: Butyrylcholinesterase (Equus caballus) (UniProt Q9N1N9); assay: Percent activity of horse serum butyrylcholinesterase on 4 hours of incubation with 5 uM at 25 degree C followed by reactivation occurring spontaneously after 20h
[17] = target: Acetylcholinesterase (Electrophorus electricus) (UniProt O42275); assay: Percent activity of eel acetylcholinesterase on 20 hours of incubation with 5 uM at 25 degree C followed by reactivation occurring spontaneously after 20h
[18] = target: Butyrylcholinesterase (Equus caballus) (UniProt Q9N1N9); assay: Percent activity of horse serum butyrylcholinesterase on 20 hours of incubation with 5 uM at 25 degree C followed by reactivation occurring spontaneously after 20h
[19] = target: Acetylcholinesterase (Electrophorus electricus) (UniProt O42275); assay: Percent activity of eel acetylcholinesterase on 2 hours of incubation with 5 uM at 25 degree C followed by reactivation occurring spontaneously after 20h
[20] = Substrate concentration constant was evaluated in inhibition of rat brain acetylcholinesterase
[21] = target: Acetylcholinesterase (Electrophorus electricus) (UniProt O42275); assay: Percent activity of eel acetylcholinesterase prior to reactivation on incubation for 2 hours with compound of 5 uM at 25 degrees
[22] = target: Acetylcholinesterase (Electrophorus electricus) (UniProt O42275); assay: Percent activity of eel acetylcholinesterase prior to reactivation on incubation for 4 hr with compound of 5 uM at 25 degrees
[23] = target: Acetylcholinesterase (Electrophorus electricus) (UniProt O42275); assay: Percent activity of eel acetylcholinesterase on 4 hours incubation with 5 uM of compound at 25 degree C followed by reactivation with 0.5 mM 2-PAM after 20h
[24] = target: Cholinesterase (Mus musculus) (UniProt Q03311); assay: Percent activity of mouse serum butyrylcholinesterase prior to reactivation on incubation for 20 hr with compound of 5 uM at 25 degrees
[25] = Substrate concentration constant was evaluated in inhibition of mouse serum butyrylcholinesterase
[26] = target: Butyrylcholinesterase (Equus caballus) (UniProt Q9N1N9); assay: Percent activity of horse serum butyrylcholinesterase on 2 hours incubation with 5 uM of compound at 25 degree C followed by reactivation with 0.5 mM 2-PAM after 20h
[27] = target: Cholinesterase (Mus musculus) (UniProt Q03311); assay: Percent activity of mouse serum butyrylcholinesterase on 20 hours of incubation with 5 uM at 25 degree C followed by reactivation occurring spontaneously after 20h
[28] = target: Acetylcholinesterase (Electrophorus electricus) (UniProt O42275); assay: Percent activity of eel acetylcholinesterase on 4 hours of incubation with 5 uM at 25 degree C followed by reactivation occurring spontaneously after 20h
[29] = tested on: Mus musculus; assay: Percent survival of mice in 24 hr of observation, pretreated with compound dose of 150 mg/kg subcutaneously against soman followed by 60 mg/kg of toxogonin and 11.2 mg/kg of atropine
[30] = target: Cholinesterase (Mus musculus) (UniProt Q03311); assay: Percent activity of horse serum butyrylcholinesterase prior to reactivation on incubation for 2 hr with compound of 5 uM at 25 degrees
[31] = target: Acetylcholinesterase (Electrophorus electricus) (UniProt O42275); assay: Percent activity of eel acetylcholinesterase on 20 hours incubation with 5 uM of compound at 25 degree C followed by reactivation with 0.5 mM 2-PAM after 20h
[32] = target: Butyrylcholinesterase (Equus caballus) (UniProt Q9N1N9); assay: Percent activity of horse serum butyrylcholinesterase prior to reactivation on incubation for 4 hr with compound of 5 uM at 25 degrees
[33] = Substrate concentration constant was evaluated in inhibition of eel acetylcholinesterase after addition of 2-PAM
[34] = target: Butyrylcholinesterase (Equus caballus) (UniProt Q9N1N9); assay: Percent activity of horse serum butyrylcholinesterase prior to reactivation on incubation for 20h with compound of 5 uM at 25 degrees
[35] = target: Acetylcholinesterase (Electrophorus electricus) (UniProt O42275); assay: Percent activity of eel acetylcholinesterase prior to reactivation on incubation for 20h with compound of 5 uM at 25 degrees
[36] = target: Cholinesterase (Mus musculus) (UniProt Q03311); assay: Percent activity of mouse serum butyrylcholinesterase on 4 hours incubation with 5 uM of compound at 25 degree C followed by reactivation with 0.5 mM 2-PAM after 20h
[37] = target: Butyrylcholinesterase (Equus caballus) (UniProt Q9N1N9); assay: Percent activity of horse serum butyrylcholinesterase on 4 hours incubation with 5 uM of compound at 25 degree C followed by reactivation with 0.5 mM 2-PAM after 20h
[38] = target: Cholinesterase (Mus musculus) (UniProt Q03311); assay: Percent activity of mouse serum butyrylcholinesterase on 4 hours of incubation with 5 uM at 25 degree C followed by reactivation occurring spontaneously after 20h
[39] = Pseudo first order rate constant of compound in inhibition of eel acetylcholinesterase at pH 7.0
[40] = Substrate concentration constant was evaluated in inhibition of horse serum butyrylcholinesterase

With `C[N+](C)(C)c1cccc(OP2(=O)OCCCO2)c1` as the compound, how does the kr [1] read?
Its kr is 0.06 min⁻¹.

What about the ks [2] of the same compound?
The ks was 0.07 min⁻¹.

What about the Activity [3] of the same compound?
The Activity was 68%.

What about the Activity [4] of the same compound?
Its Activity is 30%.

And the Activity [5]?
The Activity was 39%.

And the k' [6]?
Its k' is 0.2 min⁻¹.

And the Activity [7]?
The Activity was 98%.

What about the Activity [8] of the same compound?
Its Activity is 60%.

And the Activity [9]?
The Activity was 96%.

And the kr [10]?
The kr was 0.11 min⁻¹.

And the Activity [11]?
Its Activity is 31%.

What about the Activity [12] of the same compound?
Its Activity is 100%.

What about the kr [13] of the same compound?
The kr was 0.26 min⁻¹.

And the ks [14]?
The ks was 0.013 min⁻¹.

What about the kr [15] of the same compound?
Its kr is 0.01 min⁻¹.

And the Activity [16]?
The Activity was 42%.

And the Activity [17]?
Its Activity is 98%.

And the Activity [18]?
The Activity was 6%.

And the Activity [19]?
The Activity was 96%.

And the ks [20]?
Its ks is 0.015 min⁻¹.

What about the Activity [21] of the same compound?
Its Activity is 65%.

What about the Activity [22] of the same compound?
The Activity was 65%.

And the Activity [23]?
The Activity was 98%.

What about the Activity [24] of the same compound?
Its Activity is 52%.

What about the ks [25] of the same compound?
Its ks is less than 0.005 min⁻¹.

And the Activity [26]?
The Activity was 78%.

And the Activity [27]?
The Activity was 60%.

And the Activity [28]?
Its Activity is 94%.

What about the Survival [29] of the same compound?
The Survival was 5%.

What about the Activity [30] of the same compound?
Its Activity is 17%.

What about the Activity [31] of the same compound?
The Activity was 98%.

What about the Activity [32] of the same compound?
Its Activity is 21%.

And the ks [33]?
The ks was 0.08 min⁻¹.

What about the Activity [34] of the same compound?
The Activity was 10%.

What about the Activity [35] of the same compound?
The Activity was 60%.

And the Activity [36]?
The Activity was 78%.

What about the Activity [37] of the same compound?
Its Activity is 61%.

And the Activity [38]?
Its Activity is 78%.

What about the k' [39] of the same compound?
Its k' is 0.11 min⁻¹.

What about the ks [40] of the same compound?
The ks was less than 0.005 min⁻¹.
